Test results: patent publication US20070088080A1, “Gsk-3 inhibitors isolated from marine organisms” (NEUROPHARMA, S.A., priority 2003, published 2007)

The chains behind the UniProt entries cited, without tags or fusion partners. Where a name states a change or a piece, a line headed by the entry shows the natural chain unless it says otherwise.
UniProt P49841: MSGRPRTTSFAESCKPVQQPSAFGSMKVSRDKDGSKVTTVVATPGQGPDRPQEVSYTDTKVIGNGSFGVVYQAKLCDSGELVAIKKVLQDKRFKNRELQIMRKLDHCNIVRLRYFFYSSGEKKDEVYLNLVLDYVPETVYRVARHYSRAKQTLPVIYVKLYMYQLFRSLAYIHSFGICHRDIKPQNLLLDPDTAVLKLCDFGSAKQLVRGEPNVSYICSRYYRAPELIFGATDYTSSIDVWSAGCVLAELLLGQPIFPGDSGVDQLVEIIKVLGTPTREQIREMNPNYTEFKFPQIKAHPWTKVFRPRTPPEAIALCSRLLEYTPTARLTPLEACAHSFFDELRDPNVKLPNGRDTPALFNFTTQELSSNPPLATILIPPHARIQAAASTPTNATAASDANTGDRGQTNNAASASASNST

Target: Recombinant human glycogen synthase kinase 3β (Homo sapiens, UniProt P49841)
Experiment: GSK3β inhibition, radiometric kinase assay with GS-2 peptide and 33P-ATP

C/C(=C\C=C\C(C)CC/C=C(\C)CC1OC(=O)C(=O)C1=O)CCCc1ccoc1 (stereo not shown) [Tricantin]
IC50: 7.5 µM
